The entries are a selection whose mix differs from that of the whole data set. Activity calls are given as the source filed them. Rule as the data show it: active = luminescence above about 3900; inactive = the rest.
These compounds were tested against D(1A) dopamine receptor (Homo sapiens) (UniProt P21728) (assay: intrinsic activation of D1 CRE reporter – cell-based, HEK293 D1, CRE-luciferase, secondary assay 1, mechanism study for D1 allosteric modulator project, confirmation (AID 646)). Settings: no dopamine, at 10 µM, hits give high values.

Chains of the proteins cited; added tags and fusions are not shown.
UniProt P21728, whole entry: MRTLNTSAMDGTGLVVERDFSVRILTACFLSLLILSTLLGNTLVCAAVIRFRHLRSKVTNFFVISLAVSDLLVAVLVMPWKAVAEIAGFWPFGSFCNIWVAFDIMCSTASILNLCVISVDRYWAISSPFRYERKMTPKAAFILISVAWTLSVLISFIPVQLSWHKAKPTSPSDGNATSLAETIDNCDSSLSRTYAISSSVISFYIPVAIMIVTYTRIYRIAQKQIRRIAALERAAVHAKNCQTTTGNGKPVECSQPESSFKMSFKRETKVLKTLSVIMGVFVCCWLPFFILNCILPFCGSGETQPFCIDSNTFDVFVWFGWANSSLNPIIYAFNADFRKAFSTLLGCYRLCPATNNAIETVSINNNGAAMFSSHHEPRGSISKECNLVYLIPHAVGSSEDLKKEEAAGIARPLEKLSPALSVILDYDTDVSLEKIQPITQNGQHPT

Question: With `CCOc1ncccc1C(=O)NCC1(N2CCOCC2)CCCCC1` as the compound, how does the luminescence read?
Answer: inactive: 1690

Source: PubChem BioAssay AID646 (Vanderbilt High Throughput Screening Facility, 2007)
